Measurements from patent US20230165794A1, “OMEGA FATTY ACIDS-RICH OIL DISPERSION FORMULATIONS” (BIOPLUS LIFE SCIENCES PVT. LTD., priority 2020, published 2023).

System: Caco-2 cells
Assay: Transepithelial electrical resistance (TEER)
Conditions: positive control, 1 μg/mL, 48 h

## lipopolysaccharides
  change in TEER value in comparison to negative control: significant (p<0.001) decrease
